Some of these compounds have results that are not shown, active ones among them.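 Assay format: 96-well plates, 48-hour exposure. Abbreviation: GI50, concentration required for 50% inhibition of growth. The concentration for full growth arrest is given as TGI.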
Assays:
Assay in all cases: NCI anticancer screen, dose series, 48 h; in the data active means GI50 below about 0.43 µM; inactive means the rest
[1] = system: T-47D breast
[2] = system: SR leukemia
[3] = system: TK-10 renal
[4] = system: MDA-MB-435
[5] = system: M14 melanoma
[6] = system: UACC-62 melanoma
[7] = system: K-562 leukemia
[8] = system: COLO 205 colon
[9] = system: HCT-116 colon
[10] = system: MOLT-4 leukemia
[11] = system: OVCAR-3 ovarian
[12] = system: BT-549 breast
[13] = system: A549 NSCLC
[14] = system: NCI-H23 lung
[15] = system: HCC-2998 colon
[16] = system: MDA-MB-231 breast
[17] = system: SF-268 CNS
[18] = system: ACHN renal
[19] = system: OVCAR-5 ovarian
[20] = system: RPMI-8226 leukemia
[21] = system: UACC-257 melanoma
[22] = system: SNB-75 CNS
[23] = system: 786-0 renal
[24] = system: KM12 colon
[25] = system: U251 CNS
[26] = system: SW-620 colon

C=C(C)C(O)(C(=O)OC1C2CCN(CC2)C1C)c1ccccc1 (configuration not stated)
> 100 µM: TGI [1] | TGI [2] | TGI [3] | TGI [4] | TGI [5] | TGI [6] | TGI [7] | TGI [8] | TGI [9] | TGI [10] | TGI [11] | TGI [12] | TGI [13] | TGI [14] | TGI [15] | TGI [16] | TGI [17] | TGI [18] | TGI [19] | TGI [20] | TGI [21] | TGI [22] | TGI [23] | TGI [24] | TGI [25] | TGI [26]
inactive: GI50 [1] > 100 µM | GI50 [2] > 100 µM | GI50 [3] > 100 µM | GI50 [4] > 100 µM | GI50 [5] > 100 µM | GI50 [6] > 100 µM | GI50 [7] > 100 µM | GI50 [8] > 100 µM | GI50 [9] > 100 µM | GI50 [10] > 100 µM | GI50 [11] > 100 µM | GI50 [12] > 100 µM | GI50 [13] > 100 µM | GI50 [14] > 100 µM | GI50 [15] > 100 µM | GI50 [16] > 100 µM | GI50 [17] > 100 µM | GI50 [18] > 100 µM | GI50 [19] > 100 µM | GI50 [20] > 100 µM | GI50 [21] > 100 µM | GI50 [22] > 100 µM | GI50 [23] > 100 µM | GI50 [24] > 100 µM | GI50 [25] > 100 µM | GI50 [26] > 100 µM

Reference: PubChem BioAssay (NCI)
